{
  "sequences": {"note": "Sequences of proteins named here, by UniProt entry; tags and fusion partners are left off. Residues count along the entry.", "UniProt P01375, 77-233 limits assumed": "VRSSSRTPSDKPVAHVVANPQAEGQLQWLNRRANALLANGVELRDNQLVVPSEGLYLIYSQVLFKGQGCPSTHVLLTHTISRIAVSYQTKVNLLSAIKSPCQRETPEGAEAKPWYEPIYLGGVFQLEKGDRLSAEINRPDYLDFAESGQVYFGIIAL"},
  "source": "patent US20140161816A1",
  "about": "(Janssen / Centocor, published 2014)",
  "target": "T1, recombinant human TNFα (human, UniProt P01375 77-233, 125I label in the receptor binding assay)",
  "T1 construct": "also called huTNF∀; tumor necrosis factor alpha",
  "test": "competition: cA2 spiked into anti-IL-18 control supernatant, preincubated with 5 ng/ml 125I-TNFα, then binding to plate-coated p55-sf2, cpm bound by gamma counter",
  "data": [
    {"binder": "cA2 (anti-TNF chimeric antibody, Remicade) (antibody, V domains shown) VH: EVKLEESGGGLVQPGGSMKLSCVASGFIFSNHWMNWVRQSPEKGLEWVAEIRSKSINSATHYAESVKGRFTISRDDSKSAVYLQMTDLRTEDTGVYYCSRNYYGSTYDYWGQGTTLTVS VL: DILLTQSPAILSVSPGERVSFSCRASQFVGSSIHWYQQRTNGSPRLLIKYASESMSGIPSRFSGSGSGTDFTLSINTVESEDIADYYCQQSHSWPFTFGSGTNLEVK", "values": [
      {"measurement": "IC50 (read off the curve)", "value": "~10", "unit": "ng/mL"}
    ]}
  ]
}
